# From publication PMC10799085, “A miniaturized mode-of-action profiling platform enables high throughput characterization of the molecular and cellular dynamics of EZH2 inhibition” (Scientific Reports, 2024)
# Where “and” joins values, the source holds several entries; their conditions need not be identical. Equal entries are not always repeated.
# Legend:
# PRC2/EZH2+/+ = target: T1, PRC2/EZH2+/+ (Homo sapiens, UniProt Q15910); assay: Equilibrium binding thermodynamics (van't Hoff analysis of ePCA/kPCA at 5-37 °C)
# T1 construct: purchased Active Motif
# KARPAS-422 cells = assay: Cellular proliferation assay (AlamarBlue, 144 h); type: cell-based; details: Homo sapiens, KARPAS-422, 144 h, read-out: KARPAS (6-day) Anti-proliferation IC50 (M)
# PRC2/EZH2Y641N = target: T2, PRC2/EZH2Y641N (Homo sapiens, UniProt Q15910, Y641N); assay: Kinetic probe competition assay (kPCA), TR-FRET; type: binding
# T2 construct: Synthetic cDNA encoding N-terminal 6His-tagged full length EZH2^Y641N; 6His (N); made in house; host or cells: Sf9 insect cells (baculovirus co-infection)
smiles,measurement,setting,value
"Cc1cc(C)c(CNC(=O)c2cc(Cl)c3c(c2C)O[C@@](C)([C@H]2CC[C@H](N(C)C)CC2)O3)c(=O)[nH]1 [Compound 31, DS-3201]","binding driving force, linear van't Hoff model",PRC2/EZH2+/+,entropy-driven
same,"binding driving force, polynomial van't Hoff analysis",PRC2/EZH2+/+,entropy-driven
same,"ΔCp (heat capacity change), equilibrium conditions",PRC2/EZH2+/+,smallest
same,IC50,KARPAS-422 cells,7.8e-08 M
same,Calculated RT,PRC2/EZH2Y641N,0.69 h and 0.83 h
